# Measured values reported in patent publication US20160264677A1 (GANYMED PHARMACEUTICALS, published 2016).
# Tests used:
# [1] = molecular target: T1, human CLDN6 (claudin 6), full length (human, UniProt P56747 1-220); experiment: flow cytometry on OV90 ovarian cancer cells endogenously expressing CLDN6, median fluorescence
# T1 construct: denatured cell lysate in the Western blot; also called NP 067018.2
# T1 sequence: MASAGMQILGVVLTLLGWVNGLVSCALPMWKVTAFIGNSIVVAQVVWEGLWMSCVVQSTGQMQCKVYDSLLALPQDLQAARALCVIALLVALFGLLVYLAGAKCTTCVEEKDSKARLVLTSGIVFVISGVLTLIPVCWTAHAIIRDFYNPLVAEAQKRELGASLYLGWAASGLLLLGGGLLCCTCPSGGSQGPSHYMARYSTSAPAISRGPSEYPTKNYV
# [2] = molecular target: T1, human CLDN6 (claudin 6), full length; experiment: as above; remark: listed apart in the source
# [3] = molecular target: T1, human CLDN6 (claudin 6), full length; experiment: flow cytometry on NEC8 testicular cancer cells endogenously expressing CLDN6, median fluorescence
# [4] = molecular target: T1, human CLDN6 (claudin 6), full length; experiment: as above; remark: listed apart in the source
# [5] = molecular target: T1, human CLDN6 (claudin 6), full length; experiment: flow cytometry, saturation binding on HEK293 cells stably expressing human CLDN6, median fluorescence
# [6] = molecular target: T1, human CLDN6 (claudin 6), full length; experiment: flow cytometry, OV90 ovarian cancer cells endogenously expressing CLDN6
# [7] = molecular target: T1, human CLDN6 (claudin 6), full length; experiment: flow cytometry, NEC8 testicular cancer cells endogenously expressing CLDN6
# [8] = molecular target: T1, human CLDN6 (claudin 6), full length; experiment: flow cytometry saturation binding, HEK293 cells stably expressing human CLDN6
Binder,EC50 (read off the curve) [1] [µg/mL],EC50 (read off the curve) [2] [µg/mL],EC50 (read off the curve) [3] [µg/mL],EC50 (read off the curve) [4] [µg/mL],EC50 (read off the curve) [5] [µg/mL],EC50 [6] [µg/mL],EC50 [7] [µg/mL],EC50 [8] [µg/mL]
"chimeric monoclonal antibody chimAB 64A (antibody, human IgG1, kappa, V domains shown, Mouse/human chimeric IgG1, kappa) VH: EVQLQQSGPELVKPGASMKISCKASGYSFTGYTMNWVKQSHGKNLEWIGLINPYNGGTIYNQKFKGKATLTVDKSSSTAYMELLSLTSEDSAVYYCARDYGFVLDYWGQGTTLTVSS VL: QIVLTQSPSIMSVSPGEKVTITCSASSSVSYMHWFQQKPGTSPKLCIYSTSNLASGVPARFSGRGSGTSYSLTISRVAAEDAATYYCQQRSNYPPWTFGGGTKLEIKR",~0.6,~0.5,~0.6,~0.5,~0.5,,,
"chimeric monoclonal antibody chimAB 61D (antibody, human IgG1, kappa, V domains shown, Mouse/human chimeric IgG1, kappa) VH: EVQLQQSGPELVKPGASMKISCKASGYSFTGYTMNWVKQSHGKNLEWIGLINPYNGGTSYNQKFKGKATLTIDKSSSTAYMELLSLTSEDSAVYYCARDYGYVLDYWGQGTTLTVSS VL: QIVLTQSPAIMSASPGEKVTITCSASSSVSYLHWFQQKPGTSPKLWVYSTSNLPSGVPARFGGSGSGTSYSLTISRMEAEDAATYYCQQRSIYPPWTFGGGTKLEIKR",,,,,,1.5,1.7,2.3
